Data as given in patent US20130131321A1, “LIGANDS FOR ANTIBODY AND Fc-FUSION PROTEIN PURIFICATION BY AFFINITY CHROMATOGRAPHY” (GRAFFINITY PHARMACEUTICALS GMBH, priority 2010, published 2013).

Key:
Bevacizumab [1] = molecular target: T1, Bevacizumab (Homo sapiens, UniProt P01857); experiment: Langmuir isotherms by batch adsorption; assay type: binding, humanized; conditions: read-out: Kd (dissociation constant, Langmuir isotherm); Bevacizumab in PBS pH 7.3, 25° C., at least 3 h
T1 construct: fused on or other part: humanised anti-VEGF-A VH domain N-terminal of the gamma-1 constant region (engineered, no UniProt entry)
Method: Experiments were performed with Bevacizumab as antibody. Parameters of Langmuir isotherms for purified antibody were determined by batch adsorption experiments in 96-well microtiter plates. In each well, 10 μl of sorbent slurry (50% v/v) were mixed with 100 μl of protein solution. Initial concentrations varied from 0.05-5 mg ml^−1 in phosphate-buffered saline (0.15 M NaCl, 20 mM phosphate buffer, pH 7.3; PBS). Reactions were agitated vigorously at 25° C. for at least 3 h. Afterwards, antibody concentration in the supernatents were measured by Bradford assay.
Parameters of Langmuir isotherms, i.e. dissociation constants Kd and maximum capacities qm, were determined from the measured concentrations in supernatants. Parameters were estimated by numerical fitting of the model equation derived by Chase (4).

Bevacizumab [2] = experiment: Microtiter plate chromatography of resins, Bevacizumab whole IgG (bound, yield, selectivity); assay type: binding, humanized; conditions: for Selectivity: fraction of bound Bevacizumab whole IgG / fraction of bound HCP, truncated beyond values of 10; for selectivity index: fraction of bound Bevacizumab whole IgG divided by fraction of bound HCP, truncated beyond 10
Method: Resins were assessed in packed mode by microtiter plate chromatography. For each column, approximately 30 μl of resin were transferred to a 384-well filter plate and sealed with appropriate top frits.
Columns were equilibrated with 6.7 column volumes (cv) of phosphate buffered saline (0.15 M NaCl, 20 mM sodium phosphate, pH 7.3; PBS) prior to injection. Either 3.3 cv of whole IgGs dissolved at 0.75 mg ml^−1, Fab or Fc fragments dissolved at 0.25 mg ml^−1 (all three in PBS) or host cell proteins (HCP) were injected onto columns. Antibody fragments of Bevacizumab (Fab and Fc) were prepared by cleavage of whole IgG with papain protease (3) according to the protocol of the manufacturer. Unbound protein was washed from columns with 5 cv of PBS prior to elution with 5 cv of glycine buffer at pH 2.5. Volumes transferred were spun through columns at 50 g for 1-2 min. During injection of samples, acceleration was reduced to 10 g and centrifugation time increased to 5-10 min. Effluent fractions were collected in 384-well plates and concentrations of protein analyzed by Bradford assay. Protein masses mi, mft and me (see below) were calculated as the product of fraction volume and measured protein concentration.
The fraction of ‘bound’ protein was calculated as the difference between the total mass of protein injected mi and the mass of protein detected in the flowthrough mft, divided by the total mass of protein injected.
The ‘yield’ of protein was calculated as the mass of protein eluted me, divided by the mass of protein injected mi.
The ‘selectivity’ of resins was calculated as the fraction of bound antibody BAb, divided by the fraction of bound host cell proteins BHCP.
the fraction of ‘bound’ protein and the ‘yield’ of protein were calculated for each resin based on data for whole IgG-antibodies. In the case of Bevacizumab fragments and host cell proteins, only the fraction of ‘bound’ protein is given. Selectivity of resins was calculated from data for Bevacizumab Whole IgG and host cell proteins. Due to limited experimental precision, selectivity was truncated beyond values of 10.

With `COc1ccc(NC(=O)c2cncc(C3CC3)c2)cc1C(=O)NCCCN` [Ligand L23, 5-(3-Cyclopropylpyridin-5-yl)carboxamido-2-methoxybenzoic acid N-(3-aminopropyl)amide] the Kd (Bevacizumab [1]) was 280 µM and the Selectivity (Bevacizumab [2]) was 3.1.
`COc1ccc(NC(=O)c2nn(C)c3ccccc23)cc1C(=O)NCCCN` [Ligand L27, 2-Methoxy-5-(1-methylindazol-3-yl)carboxamidobenzoic acid N-(3-aminopropyl)amide] was tested, and the Kd (Bevacizumab [1]) was 241 µM, the Selectivity (Bevacizumab [2]) was 2.9 and the selectivity index (Bevacizumab [2]) was 2.9.
`COc1ccc(NC(=O)c2cc(-c3ccco3)n(C)n2)cc1C(=O)NCCCN` [Ligand L1, 5-[5-(2-Furyl)-1-methylpyrazol-3-yl]carboxamido-2-methoxybenzoic acid N-(3-aminopropyl)amide] was tested, and the Kd (Bevacizumab [1]) was 153 µM, the Selectivity (Bevacizumab [2]) was 3.3 and the selectivity index (Bevacizumab [2]) was 3.3.
With `COc1ccc(NC(=O)c2cncc(-c3ccco3)c2)cc1C(=O)NCCCN` [Ligand L13, 5-[3-(2-Furyl)pyridin-5-yl]carboxamido-2-methoxybenzoic acid N-(3-aminopropyl)amide] the Selectivity (Bevacizumab [2]) was 2.7.
For `C#Cc1cncc(C(=O)Nc2ccc(OC)c(C(=O)NCCCN)c2)c1` [Ligand L24, 5-(3-Ethynylpyridin-5-yl)carboxamido-2-methoxybenzoic acid N-(3-aminopropyl)amide], the Selectivity (Bevacizumab [2]) was 3.5.
`Cn1nc(C(=O)Nc2cccc(C(=O)NCCCN)c2)cc1-c1ccco1` [Ligand L17, 3-[5-(2-Furyl)-1-methylpyrazol-3-yl]carboxamidobenzoic acid N-(3-aminopropyl)amide] gave a Kd (Bevacizumab [1]) of 686 µM and a Selectivity (Bevacizumab [2]) of 2.8.
`COc1ccc(NC(=O)c2cncc(-c3ccoc3)c2)cc1C(=O)NCCCN` [Ligand L22, 5-[3-(3-Furyl)pyridin-5-yl]carboxamido-2-methoxybenzoic acid N-(3-aminopropyl)amide] was tested, and the Selectivity (Bevacizumab [2]) was 3.1.
